We go through 1 compound from publication PMC4819712 (Drug Development Research, 2016).

Protein sequences, listed by entry. Tags and fused reporters are not part of them. Residues count along the entry.
UniProt P23219, 24-599: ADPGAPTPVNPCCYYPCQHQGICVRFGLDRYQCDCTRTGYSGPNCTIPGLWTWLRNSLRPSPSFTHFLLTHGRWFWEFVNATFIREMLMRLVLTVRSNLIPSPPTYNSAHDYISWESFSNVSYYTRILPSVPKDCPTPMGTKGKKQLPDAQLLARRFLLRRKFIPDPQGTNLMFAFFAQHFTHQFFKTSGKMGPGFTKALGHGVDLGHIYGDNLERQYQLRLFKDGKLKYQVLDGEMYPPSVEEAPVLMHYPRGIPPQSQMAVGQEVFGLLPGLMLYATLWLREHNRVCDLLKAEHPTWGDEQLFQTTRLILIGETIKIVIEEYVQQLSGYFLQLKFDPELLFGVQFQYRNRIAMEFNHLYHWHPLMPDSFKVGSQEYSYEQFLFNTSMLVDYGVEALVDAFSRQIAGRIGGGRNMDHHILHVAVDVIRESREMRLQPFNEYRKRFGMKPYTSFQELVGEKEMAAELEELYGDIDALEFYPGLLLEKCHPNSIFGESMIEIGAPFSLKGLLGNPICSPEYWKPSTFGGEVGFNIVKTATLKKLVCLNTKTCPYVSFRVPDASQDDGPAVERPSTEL

The assay has as its target Human recombinant COX‐1 (Homo sapiens, UniProt P23219). The format is biochemical.

What is called IC50 is the concentration at which inhibition is half-maximal. Consider `C[C@H](C(=O)O)c1ccc(-c2ccccc2)c(F)c1` [S(+)‐flurbiprofen, (2S)‐2‐(2Fluorobiphenyl‐4‐yl) propionic acid], for which the IC50 was 8.97 nM.
